Test system: dental follicle-derived organoids
Assay: Organoid growth with EGFR blocking added at passaging
Format: cell-based, human
Conditions: day 14, smaller organoids (FIG. 9b)
From the text: To establish organoids from primary tissues, supplementation of EGF is generally found quintessential. […] In vivo, it is known that elevated EGF levels in the epithelial cell rests of Malassez compartment (as, for instance, occurring upon tooth movement, infection or trauma) activates epithelial cell rests of Malassez cell proliferation [Davis (2018) J. Vet. Dent. 35, 290-298]. […] It has been proposed that EMT induction in the epithelial cell rests of Malassez (as, for instance, occurring upon damaging tooth impact) enables the cells to migrate and eventually contribute to regeneration of neighbouring tissues [Davis (2018) J. Vet. Dent. 35, 290-298].
The dissociated dental follicle cell material was resuspended in a mixture of serum-free defined medium (SFDM; Thermo Fisher Scientific; Table 4) and growth factor-reduced Matrigel (Corning) in a 30:70 ratio, which was plated in 48-well plates at 20,000 cells per 20 μL drop. After solidification, tooth organoid medium (TOM; Table 1), unless indicated otherwise, was supplemented. ROCK inhibitor (RI; 10 μM; Merck Millipore) was added the first day of seeding (or passaging). Organoid cultures were kept at 37° C. in a 1.9% CO2 incubator, and medium was refreshed every 2 to 3 days, each time supplemented with fungizone (0.1%).
The organoid cultures were passaged every 10 to 14 days. […]

Substance: cetuximab
- organoid growth: compromised organoid growth
